Values quoted from earlier work, collected in article PMC6478789, “A chemical toolbox for the study of bromodomains and epigenetic signaling” (Nature Communications, 2019).

Amino acid sequences for entries named in this document (tags omitted). Residues count along the entry.
UniProt O15164, 899-1004 limits assumed: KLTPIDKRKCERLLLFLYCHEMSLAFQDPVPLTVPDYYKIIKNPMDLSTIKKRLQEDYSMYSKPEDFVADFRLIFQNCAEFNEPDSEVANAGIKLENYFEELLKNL

Key:
[1] = target: BRPF2; settings: read-out: KD (nM), BRPF2; ITC; ref 19 (suppl.); cited from earlier work
[2] = target: TRIM24 (Homo sapiens, UniProt O15164); settings: read-out: KD (nM), TRIM24; ITC; ref 19 (suppl.); cited from earlier work

In the case of `COc1ccc(Oc2cc3c(cc2NS(=O)(=O)c2ccc(OC)c(OC)c2)n(C)c(=O)n3C)cc1`, the Kd [1] is given as 1240 nM and the Kd [2] is given as 220 nM.
